For one compound, IC50 results are on record in article PMC9716449 (International Journal of Tryptophan Research : IJTR, 2022).

The chains behind the UniProt entries cited, without tags or fusion partners. Where a name states a change or a piece, a line headed by the entry shows the natural chain unless it says otherwise.
UniProt P48775: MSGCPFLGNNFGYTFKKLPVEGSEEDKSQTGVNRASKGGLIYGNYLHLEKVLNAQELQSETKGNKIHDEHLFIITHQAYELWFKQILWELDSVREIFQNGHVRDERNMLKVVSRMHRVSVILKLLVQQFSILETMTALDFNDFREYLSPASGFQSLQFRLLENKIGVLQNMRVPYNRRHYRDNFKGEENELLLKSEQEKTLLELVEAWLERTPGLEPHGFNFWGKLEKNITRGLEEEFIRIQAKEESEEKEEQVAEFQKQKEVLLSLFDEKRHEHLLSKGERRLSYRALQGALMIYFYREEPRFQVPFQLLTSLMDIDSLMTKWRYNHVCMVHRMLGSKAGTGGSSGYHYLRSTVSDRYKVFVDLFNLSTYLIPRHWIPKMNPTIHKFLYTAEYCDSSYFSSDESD

The experiment has as its target rhTDO (Homo sapiens, UniProt P48775). In words: Enzyme assay. The conditions noted are these: read-out: IC50 value on rhTDO; cell-free; 2 mM L-Trp. The format is biochemical.

What is called IC50 is the concentration that inhibits the measured activity by half. Regarding `Fc1ccc2c(/C=C/c3cccnc3)c[nH]c2c1` [680C91], the IC50 was 880 nM.
